Target: human GLP-1 receptor (human) (UniProt P43220)
Assay: cell-based or functional assay

Q: For Exendin-4(1-39) (peptide), which EC50, cAMP induction in HEK293 cells expressing human GLP-1 R is on record?
A: The EC50, cAMP induction in HEK293 cells expressing human GLP-1 R was 17 pM.
